Where two headings read alike, the source gives them in different places.
Assays:
[1] = test system: gut MPS and liver MPS on-platform
[2] = test system: gut MPS and liver MPS on-platform; experiment: Drug and metabolite concentration-time profiles on the multi-MPS platform; conditions: Liver only arm; three-day experiment

Q: Which results are given for `O=C(O)Cc1ccccc1Nc1c(Cl)cccc1Cl` [DCF, diclofenac]?
A: metabolism on-platform (in words) [1]: minimal; metabolism on-platform (in words) [2]: substantial
